# Antibody variant affinities, Ab-14 light chain, assay B

Values reported by Li et al. 2023, doi:10.1038/s41467-023-39022-2 (FLAb copy).

Target peptide (SARS-CoV-2 spike, HR2 region): PDVDLGDISGINAS

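The starting antibody came from a phage panning campaign against this peptide. Designed CDR sequences, proposed from the first random library and measured here. Several design methods are mixed in this list. AlphaSeq pools MATa yeast showing the antibodies with MATalpha yeast showing the peptide. After mating in shaken culture at 30 °C for 16 h, diploids were selected and their barcode pairs sequenced. Scores were corrected for input abundance and mapped to Kd with protein pairs of known affinity run in the same pool. There are six technical replicates.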

The variants keep the heavy chain, the linker and the frameworks of Ab-14 (scFv order VH, a (GGGGS)3 linker, VL).
VH: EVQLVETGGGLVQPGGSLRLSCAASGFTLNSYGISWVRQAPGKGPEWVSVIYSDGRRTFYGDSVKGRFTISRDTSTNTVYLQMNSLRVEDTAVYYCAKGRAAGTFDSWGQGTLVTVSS
VL: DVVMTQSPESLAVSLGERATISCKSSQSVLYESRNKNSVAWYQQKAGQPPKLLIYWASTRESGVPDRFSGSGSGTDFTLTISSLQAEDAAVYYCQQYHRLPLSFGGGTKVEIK

Each variant is given by its three light chain CDRs, as the data file delimits them; those of the parent are KSSQSVLYESRNKNSVA, WASTRES, QQYHRLPLS.
Numbers give log10(Kd / nM), so 0 is 1 nM and 3 is 1 µM. Smaller is tighter.
Replicates are averaged; those with no signal do not enter the mean.
A pair that was not seen in any replicate is written "not detected"; this usually means weak binding, but a binder can also be missed.

| CDR-L1 | CDR-L2 | CDR-L3 | log10 Kd (nM), mean | seen in | empty controls |
|---|---|---|---|---|---|
| TLYMGPTEARDSKHAIA | DNNERDR | QQYHRLPLV | 0.45 | 6 of 6 | 0 of 18 |
| KAFQSWLYESRNKNSVA | GASTRES | QQYHRLPLI | 0.13 | 6 of 6 | 2 of 18 |
| KISQSGPYEDRNFNSVA | HASYRIS | QQYHRLPLS | 0.87 | 6 of 6 | 0 of 18 |
| KSSQEVLYESRNKNSVA | WASTRES | QQYHRLPNS | not detected | 0 of 6 | 0 of 18 |
| HFAYQLQSLYNSKQNVA | NASTVMT | QHYNRLPLS | 1.98 | 5 of 6 | 1 of 18 |
| KLGNQERMNGMANQNVA | AMNTRVD | QEYHRLPLI | 0.40 | 6 of 6 | 0 of 18 |
| KVSQSVLPESCNVNSVA | YASTRED | QQYHRLPLS | 1.54 | 6 of 6 | 1 of 18 |
| KLSQSMLYESRNDNSVA | QASTRED | QDYHRLPLT | 0.38 | 6 of 6 | 1 of 18 |
| HIQDARGGLSEQWNSVA | STEERSH | QQYHRLPLS | 0.61 | 6 of 6 | 2 of 18 |
| KSSQSVLKESRNKNSVA | EASCRES | QQYHRLPLS | 1.42 | 6 of 6 | 1 of 18 |
| KLSQMVDYESRNMNNVA | EASTRMS | QQYHRLPLS | -0.68 | 6 of 6 | 0 of 18 |
| KSSQSVLYESRLKNSVA | NGSTRES | QQYHRLPLS | 0.76 | 6 of 6 | 2 of 18 |
| KLDQSWWREWRNKNSVA | QASTREQ | QQYHRLPLS | 0.60 | 6 of 6 | 0 of 18 |
| KISMLINQTFEVSNNVA | EMVTREK | QQYNRLPLS | 0.90 | 6 of 6 | 0 of 18 |
| KLQQSQLYESRNFNSVA | HASTRED | QQYHRLPLS | -0.06 | 6 of 6 | 1 of 18 |
| MNSQSVEYESTNKNSVA | WASTRES | QQYHRLPFS | 2.75 | 3 of 6 | 1 of 18 |
| HMSMLTLTGMRQKNSVA | QMTTREN | QQYDRLPLA | 1.42 | 4 of 6 | 0 of 18 |
| KISQSVLTESRNKNSVA | SASTRES | QQYHRLPLS | -0.22 | 6 of 6 | 0 of 18 |
| KVSQSVDGQSRNKNAVA | AASTRED | QQYHRLPLS | 0.19 | 6 of 6 | 3 of 18 |
| KSSLSDLYESRNKNSVA | HASTREV | QQYHRLPLS | 0.01 | 6 of 6 | 0 of 18 |
| LQSQSELLESRNHNSVA | EASTRMD | QQYHRLPLS | 1.66 | 6 of 6 | 1 of 18 |
| HMSMLTLGGMRTRNSVA | QMTTREN | QQYDRLPLS | 1.93 | 6 of 6 | 0 of 18 |
| KMSWSVLFESRNKNSVA | DASTRES | QQYHRLPLS | -0.20 | 6 of 6 | 1 of 18 |
| KIGGVTNGTSRNKNSVA | EQSTRED | QQYNRLPLS | 1.46 | 6 of 6 | 1 of 18 |
| TLTQVTMVESYAKNSVA | QASTREE | QDYHRLPLS | 1.02 | 6 of 6 | 0 of 18 |
| MISQLFNMGQFAINSVA | QASTRNS | QQYDRLPLM | 1.26 | 6 of 6 | 0 of 18 |
| KLQMSWLMQSRMKNSVA | HASMRES | QQYHRLPLS | 0.87 | 6 of 6 | 2 of 18 |
| KSSDSVLNESRNGNSFA | WASTRES | QQYHRLPLS | not detected | 0 of 6 | 1 of 18 |
| TISQSWLYESFNKNNVA | EMSTREN | QDYDRLPLS | 0.10 | 6 of 6 | 2 of 18 |
| HITYGMQVAGRHSSSIA | QAETRAK | QQYDRLPLI | -0.35 | 3 of 6 | 0 of 18 |
| KSGQGVLQESRNWNSVA | GASTRES | QQYHRLPLS | -0.14 | 6 of 6 | 1 of 18 |
| KLSQSDLYESRNKNSVA | DASQRES | QQYHRLPLS | 0.41 | 6 of 6 | 0 of 18 |
| KQSQAGLYESRNKNSVA | DANTRES | QQYHRLPLS | -0.19 | 6 of 6 | 0 of 18 |
| KIGMTLNTLLHQKNNVA | DLVERED | QQYFRLPLS | 0.23 | 6 of 6 | 1 of 18 |
| RIGMNFTWPGNARQNVA | EIQKAID | QQYAHLPLS | 1.56 | 6 of 6 | 0 of 18 |
| KIASSMNLTSHHINSVA | QSETRED | QQYNHLPLS | 1.19 | 6 of 6 | 2 of 18 |
| MLRFDITDGQKNWNNIA | ETSELGA | QQYAHLPLG | 0.52 | 6 of 6 | 2 of 18 |
| KVSISWLYESRNKNSVA | WASTRES | QQYDRLPLS | 2.48 | 3 of 6 | 0 of 18 |
| KVYISFLYESRNKNSVA | EASTRES | QQYHRLPLS | 1.12 | 6 of 6 | 0 of 18 |
| KLSQSMLYESRNKNSVA | NASTRLE | QQYHRLPLS | -0.31 | 6 of 6 | 4 of 18 |
| KLAMILSMWAGTYHGVA | DANHKAD | QQYNRLPLS | 0.20 | 6 of 6 | 2 of 18 |
| KISGMYEKESKNKNSVA | EMVNRES | QQYDRLPLS | 0.59 | 6 of 6 | 0 of 18 |
| MVSQLMLVGMHAKNSIA | EASSRLN | QQYDRLPLI | 1.36 | 6 of 6 | 2 of 18 |
| KSSQSVMYESRNKNSVA | WASTRVS | QQYHRLPLS | 2.04 | 6 of 6 | 1 of 18 |
| KGQQQQQYESRNWNSVA | NASYRES | QQYHRLPLS | 0.19 | 6 of 6 | 0 of 18 |
| KVSASMAFLSRNRNSVA | DNSTRGS | QQYHRLPLS | 1.10 | 6 of 6 | 1 of 18 |
| KFSQSVLYESRHKNSVA | WASTREV | QQCHRLPLS | not detected | 0 of 6 | 1 of 18 |
| IISQSFLGEYHNKNSVA | QTSERGS | QQYDRLPLS | 0.12 | 6 of 6 | 4 of 18 |
| KVSQSVLYESGMKNSVA | NASSRES | QQYHRLPLS | -0.03 | 6 of 6 | 2 of 18 |
| KSSQEVLYEGRNKNSLA | KASTRES | QQYHRLPLS | 0.85 | 6 of 6 | 0 of 18 |
| HILQNMMYQSRNINSVA | HQSTRED | QQYHSLPLS | 1.19 | 6 of 6 | 0 of 18 |
| SMAYFQGFYNQQEKAIA | ESATREQ | QQYFRLPLT | 0.50 | 6 of 6 | 0 of 18 |
| HASQSGLYESRVKNSVA | SASMRES | QQYHRLPLS | 0.67 | 6 of 6 | 1 of 18 |
| KLTQVTGHLSVEKNNVA | EMETREN | QQYDRLPLS | 1.02 | 5 of 6 | 0 of 18 |
| KLSQSVLYESRNKNSVA | NASTRMS | QSYHRLPLS | -0.09 | 6 of 6 | 3 of 18 |
| KLQQSMLYESRWHNSVA | HASVRCD | QQYHRLPLS | 1.70 | 6 of 6 | 2 of 18 |
| KARQSELYEERNKNSVA | WASTRVS | QQYHRTPLS | not detected | 0 of 6 | 0 of 18 |
| TIGSTLMYGMRNRSNVA | EVSERLN | QQYDRLPLI | 2.12 | 6 of 6 | 0 of 18 |
| KISTMVRVGSTHKNSIA | EEATRSD | QQYHRLPLA | 1.78 | 4 of 6 | 0 of 18 |
| KMEQSNGYESRNKNSVA | NASTRES | QQYHRLPLS | -0.17 | 6 of 6 | 1 of 18 |
| KFSQSVLYESRTSNQVA | NASTRES | QQYHRLPLS | 0.14 | 6 of 6 | 0 of 18 |
| KLSVSMLLESFHKNSVA | ENSTREE | QHYHRLPLS | 2.69 | 1 of 6 | 0 of 18 |
| KVSQGMWYEDRMKNSVA | NASQREQ | QQYHRLPLQ | 0.27 | 6 of 6 | 1 of 18 |
| KLQQSVLYESRNKNSVA | NASQRMS | QQYHRLPLS | 0.12 | 6 of 6 | 3 of 18 |
| KSSQSVLYESRNLNSVA | NASTRES | QQYHRLPLS | 0.14 | 6 of 6 | 0 of 18 |
| KVSMLHDYESRNKNSVA | EASTRES | QDYHRLPLS | 0.02 | 6 of 6 | 1 of 18 |
| KSSISPLYESRNKNSVA | AASTRES | QQYHRLPLS | 0.12 | 6 of 6 | 0 of 18 |
| MIEIIPNGYMKMRSNVA | DGSLVRM | QQYARLPLM | not detected | 0 of 6 | 0 of 18 |
| NLSQSWLYESRNKNSVA | GGSTRES | QQYHRLPLS | -0.39 | 6 of 6 | 0 of 18 |

Picked from the list: the 4 lowest averages where every replicate gave a value.

{"CDR-L1": "KLSQMVDYESRNMNNVA", "CDR-L2": "EASTRMS", "CDR-L3": "QQYHRLPLS", "log10 Kd (nM), mean": "-0.68", "seen in": "6 of 6", "empty controls": "0 of 18"}
{"CDR-L1": "NLSQSWLYESRNKNSVA", "CDR-L2": "GGSTRES", "CDR-L3": "QQYHRLPLS", "log10 Kd (nM), mean": "-0.39", "seen in": "6 of 6", "empty controls": "0 of 18"}
{"CDR-L1": "KLSQSMLYESRNKNSVA", "CDR-L2": "NASTRLE", "CDR-L3": "QQYHRLPLS", "log10 Kd (nM), mean": "-0.31", "seen in": "6 of 6", "empty controls": "4 of 18"}
{"CDR-L1": "KISQSVLTESRNKNSVA", "CDR-L2": "SASTRES", "CDR-L3": "QQYHRLPLS", "log10 Kd (nM), mean": "-0.22", "seen in": "6 of 6", "empty controls": "0 of 18"}

A sequence measured in both rounds can read differently, since the two assays cover different ranges.
Of ten entries with the parent sequence, four were seen in most replicates (averages 0.34 to 2.37), three in one and three in none, so single entries are noisy.
The authors' rule: three or more of the six replicates give a measured affinity, fewer mean a poor binder.
Nonspecific signal, from three strains lacking the peptide, appeared in 4% of pairings of all light chain designs, centred on 2.64 (5% of these signals below 1.59); values are not corrected for it. Also given: how often the same scFv was detected with the empty control strains.